Assay results as given in PubChem BioAssay AID485294 (National Center for Advancing Translational Sciences (NCATS), 2010).
The campaign covered roughly 370,000 compounds. About 150 (0.041%) were called active. The source calls these results inconclusive, neither active nor inactive. The call rests on the fitted dose curve; in most records, active means well fitted inhibition curve with a large enough effect; inconclusive means small, poorly fitted or top-dose-only effect; inactive means flat fitted curve, though single readings scatter.
Further: nearly all actives have a fitted effect of over 25% in size.
Potency means the concentration at half of the fitted maximal effect.

By UniProt entry, the sequences of proteins in these tests, tags left out. Where a name states a change or a piece, a line headed by the entry shows the natural chain unless it says otherwise.
UniProt P00811: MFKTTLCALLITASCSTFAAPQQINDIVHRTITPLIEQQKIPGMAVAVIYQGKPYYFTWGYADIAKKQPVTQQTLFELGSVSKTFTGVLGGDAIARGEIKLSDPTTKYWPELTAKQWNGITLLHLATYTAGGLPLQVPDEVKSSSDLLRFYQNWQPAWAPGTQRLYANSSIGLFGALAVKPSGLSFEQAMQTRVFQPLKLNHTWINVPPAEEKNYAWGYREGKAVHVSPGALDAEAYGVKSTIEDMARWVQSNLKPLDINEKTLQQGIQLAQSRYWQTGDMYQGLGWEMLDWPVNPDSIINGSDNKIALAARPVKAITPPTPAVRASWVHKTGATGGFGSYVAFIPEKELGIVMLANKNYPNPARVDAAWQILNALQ

The molecules below were run against Beta-lactamase (Escherichia coli (strain K12)) (UniProt P00811) (assay: qHTS Inhibitors of AmpC Beta-Lactamase (assay with detergent)). Details: AmpC hydrolysis of nitrocefin, absorbance 480 nm, 0.01% Triton.
For `CC(C)/C=N\N=C(\N)N[N+](=O)[O-]`, the Potency was inconclusive: 3.16 µM. `O=[N+]([O-])c1cc([N+](=O)[O-])c(CCNc2ccccc2)c([N+](=O)[O-])c1` was tested, and the Potency was inconclusive: 100 µM. With `Cc1ccc(N/C(=N/P(=O)(N2CCOCC2)N2CCOCC2)N2CCOCC2)cc1` the Potency was inconclusive: 100 µM. In the case of `O=C(NC(Sc1ccncn1)C(Cl)(Cl)Cl)c1ccccc1` (centres undefined), the Potency is reported as inconclusive: 11.2 µM. `Cc1cc(SC(NC(=O)c2ccc(F)cc2)C(Cl)(Cl)Cl)ncn1` (centres undefined) was tested, and the Potency was inconclusive: 5.01 µM. `CCOC(=O)NC(Sc1ccccc1)C(Cl)(Cl)Cl` (centres undefined) was tested, and the Potency was inconclusive: 7.94 µM. With `CC(=O)NC(SC(=S)N(CC(C)C)CC(C)C)C(Cl)(Cl)Cl` (centres undefined) the Potency was inconclusive: 15.8 µM. `O=P1(Nc2nc3ccc(Cl)cc3s2)COc2ccccc2O1` (centres undefined) was tested, and the Potency was inconclusive: 2 µM. For `O=[As](O)(c1ccccc1)c1ccc(O)cc1`, the Potency was inconclusive: 20 µM.
